Results from patent publication US8980838B2, “Cyclized peptidomimetic small molecule inhibitors of the WDR5 and MLL1 interaction” (The Regents of the University of Michigan, priority 2011, dated 2015).

Molecular target: WDR5 (Homo sapiens, UniProt P61964)
Test: fluorescence-polarization based competitive binding assay
Settings: read-out: IC50, binding affinity to WDR5; FP competitive binding; WDR5Δ23 4 nM, tracer 0.6 nM, five hours incubation; Table 3 series; tested form: trifluoroacetate

- IC50: < 1 µM
SMILES: CC[C@@H]1NC(=O)[C@H](CCCNC(=N)N)NC(=O)[C@@](C)(NC(=O)C(C)C)CCCCCNC1=O
